ChEMBL document CHEMBL1145819 (J Med Chem, 2003)

Sequences of proteins named here, by UniProt entry; tags and fusion partners are left off.
UniProt P32305, whole entry: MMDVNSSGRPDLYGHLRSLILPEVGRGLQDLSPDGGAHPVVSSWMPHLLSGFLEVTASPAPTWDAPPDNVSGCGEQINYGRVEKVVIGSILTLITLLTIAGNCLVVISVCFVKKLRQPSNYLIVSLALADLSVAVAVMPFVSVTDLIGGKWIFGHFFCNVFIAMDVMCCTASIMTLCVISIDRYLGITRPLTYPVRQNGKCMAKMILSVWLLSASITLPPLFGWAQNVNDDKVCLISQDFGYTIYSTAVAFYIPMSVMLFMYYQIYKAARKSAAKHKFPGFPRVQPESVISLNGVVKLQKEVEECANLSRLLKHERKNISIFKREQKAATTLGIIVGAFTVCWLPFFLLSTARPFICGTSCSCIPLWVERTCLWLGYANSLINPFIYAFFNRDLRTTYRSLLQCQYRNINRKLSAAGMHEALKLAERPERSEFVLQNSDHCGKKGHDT

Target: 5-hydroxytryptamine receptor 7 (Rattus norvegicus, UniProt P32305)
Experiment: Binding affinity towards rat 5-hydroxytryptamine 7 receptor

CCN(CC)C(=O)[C@@H]1C=C2c3cccc4[nH]cc(c34)C[C@H]2N(C)C1 [LYSERGIDE]
Ki: 2 nM
